According to US10746738B2, “Claudin-1 peptide reagents and methods” (THE REGENTS OF THE UNIVERSITY OF MICHIGAN, priority 2015, dated 2020):
Entries after “also recorded” stand apart in the source; their conditions may differ.

Columns and labels:
human colonic tissues = experiment: Ex vivo staining of human colonic tissue sections
Protocol: Human colon tissue was obtained through consenting patents at the University of Michigan Hospital. Tissue was frozen in OCT and sectioned 10 μm thick using a Cryostat. The sections were thawed before staining with 10 μM RTS*-Cy5 for 15 minutes at RT. Tissues were then washed with PBS, fixed with 4% PFA for 10 min at RT, and counterstained with DAPI with Prolong Gold. Fluorescence was imaged and quantified as outlined above.
Specimens of normal colonic mucosa, adenoma, and adenocarcinoma from the right side (proximal) of the colon were obtained from routine surveillance colonoscopy and surgically removed by endoscopic mucosal resection. The tissues were frozen in OCT (Sakura Finetek), cut in 10 μm sections, and incubated with pep*-Cy5 (5 μM) in 1×PBS for 15 minutes at RT. The sections were washed 3× with PBS. Confocal fluorescence images were collected from these sections with DAPI, FITC and Cy5 filter sets (Leica TCS SP5 Microsystems).
The mean fluorescence intensities (±SEM) from binding of pep*-Cy5 were measured for normal colonic mucosa (n=4, 7±2 AU), adenoma (n=6, 26±4 AU) and adenocarcinoma (n=5, 31±4 AU), P<0.001, unpaired t-test (FIG. 6, scale bar 500 μm). […] We found pep*-Cy5 and anti-claudin-1 mAb to stain colonic adenomas and adenocarcinomas in 11/12 (92%) and 10/10 (100%) sections, respectively.

[1] = test system: proximal human colon specimens; experiment: Immunofluorescence of proximal human colon with claudin-1 peptide and antibody
Protocol: Formalin-fixed, paraffin-embedded (FFPE) specimens from human proximal colon were obtained from the archived tissue bank in the Department of Pathology at the University of Michigan. 5 μm thick sections were cut, mounted onto glass slides (Superfrost Plus, Fischer Scientific). The tissues were deparaffinized using a standard protocol. The sections were incubated with 3 rounds of xylene (3 min each) and 2 rounds of 100% and 95% ethanol (2 min each), and hydrated with water for 5 min. Antigen retrieval was performed with 10 mM citric acid buffer containing 0.05% Tween 20; pH 6.0. The specimens were placed in a citric acid buffer, maintained at a sub-boiling temperature for 15 min, and then allowed to cool to RT for 30 min. […] Confocal fluorescence images were collected with using a 63× oil immersion objective (Leica TCS SP5 Microsystems). […]
The mean fluorescence intensities from 3 boxes with dimensions of 20×20 μm2 placed completely within the surface epithelium of each image was measured for RTS*-Cy5.5 using custom Matlab software (MathWorks Inc). […]
Co-localization of peptide and antibody binding can be appreciated on these merged images, and the extent is characterized by the Pearson's correlation coefficient ρ. We measured the fluorescence intensities from binding of the RTS*-Cy5.5 peptide in a set of 3 boxes with dimensions of 20×20 μm^2 located at random on cells in the epithelium.

SW620 cells = experiment: Competitive binding assay with unlabeled peptide; format: cell-based, human
Protocol: SW620 cells were plated at 0.5×10^6 cells/mL on coverslips on 12-well plates. The following day, the cells were treated first with unlabeled RTS* peptide at 0, 25, 50, 100, 200, or 400 μM for 30 min at 4° C., washed with PBS, and then treated with 5 μM of RTS*-Cy5.5 for 30 min at 4° C. The cells were fixed with 4% PFA for 5 min at RT, washed, and counterstained with DAPI with Prolong Gold while placing on slides. Fluorescent images were collected with a Leica SP5× confocal microscope using a 63× (numerical aperture=1.4) oil-immersion objective. Fluorescence intensities were quantified via Matlab Software.
The specificity of peptide binding was also validated by competition assay. Cells were grown on cover glass and incubated first with unlabeled peptides with concentrations ranging from 0-400 μM, and then with the optimized peptide. The fluorescence intensities were measured with confocal microscopy. As an example, we evaluated binding of RTS*-Cy5.5 to SW620 cells on competition with addition of unlabeled RTS* and SPT* (control). We fit two-way ANOVA models with terms for the labeled peptide, concentrations of the unlabeled peptides and their interactions on log-transformed data. […] With this study design, analysis and effect sizes, as shown in FIG. 3A using triplicate slides, we have 100% power to obtain P<0.01 for differences between 0 and 400 nM for differences between RTS* and SPT*.

T84 monolayers = experiment: Transepithelial electrical resistance (TEER) and tight junction immunofluorescence; format: cell-based, human
Protocol: T84 human colon carcinoma cells were grown in a 1:1 mixture of DMEM and Ham's F-12 culture medium supplemented with 5% FBS. To establish polarized monolayer, the cells were plated on transwell permeable polyester supports (1.12 cm^2, pore size 3 μm, Costar) until they reached confluence after ˜3-4 days, as determined by an increase in TEER.43 The cells were continually grown on transwell supports until the TEER reached ˜2000 Ω-cm^2. Then, 5 μM of either RTS-Cy5.5 or control peptides were added. TEER was then measured at 6, 12 and 24 hours. The cells were fixed with 4% PFA for 12 min. After brief washing, 1% SDS in PBS was used to permeabilize the cells. These procedures were followed by 3% goat serum in PBS blocking for 30 min. Mouse anti-zonula occludens-1 (anti-ZO-1) (1:250, Life Technologies) and rabbit anti-claudin-1 (1:200, Life Technologies) antibodies were diluted in block buffer and incubated in humidity box overnight at 4° C. and fluorescent secondary antibodies were diluted to 1:1000 and incubated for 1 hour at RT. All images were obtained using Nikon A1 confocal microscope (MIL, University of Michigan).
We evaluated the effect of peptide binding on tight junction function using a polarized monolayer of T84 cells plated on transwell supports. We found high trans-epithelial electrical resistance (TEER) with either RTS* or SPT* for up to 24 hours, FIG. 12A. On immunofluorescence, we observed antibodies for zonula occludens-1 (ZO-1), FIG. 12B,E, and claudin-1, FIG. 12C,F, to localize to the cell junctions.

[2] = test system: extracellular domain of claudin-1; experiment: Phage display biopanning; format: binding, human; settings: M13 library
Protocol: Peptide specific for CLDN1 were identified through the phage display technique using the PhD7 phage library (New England Biolabs, Ipswich, Mass.) according to the manufacturer's guidelines. The panning process was performed on 15 mm dishes coated with 0.1 mg/mL streptavidin, washed with TBST (Tris buffered saline (TBS) with 0.1% Tween-20), and blocked for 1 h at 4° C. with blocking buffer (0.1 M NaHCO3 with 0.5% bovine serum albumin (BSA) and 0.1 m/mL streptavidin). […] Unbound phage was collected after each clearing step and used in subsequent clearing steps. After the third and final round of clearing, phage were amplified and titered. To perform the biopanning process against CLDN1, the biotinylated CLDN1 ECD peptide was pre-complexed with 2×10^11 cleared, amplified phage before adding to a blocked streptavidin-coated dish for 30 minutes at RT with agitation. After 30 minutes, biotin was added at a final concentration of 0.1 mM for 5 minutes to bind any free streptavidin. Dishes were washed 10 times with TBST and weak binders were removed by eluting with elution buffer (0.2 M glycine, pH 2.2, with 1 mg/mL BSA) for 2 minutes. A second elution was performed for 13 minutes to elute strong binders. Eluate containing the strong binders was neutralized with neutralization buffer (1M Tris-HCl, pH 9.1), amplified, and titered before performing the next round of biopanning. […]

colonic dysplasia = experiment: In vivo fluorescence endoscopy of colon in CPC;Apc mouse; settings: n=10 dysplasias
Protocol: A genetically engineered mouse model (Cpc;Apc) that spontaneously forms adenomatous polyps in the colon was used for this study and handled according to Institutional Guidelines. The colons of anesthetized mice were first cleaned with water before imaging with a small animal endoscope (Karl Storz Veterinary Endoscope) using the white light channel to locate polyps by identifying anatomic landmarks and the distance of the endoscope tip from the anus. A 100 μM solution of either RTS*-Cy5.5 or SPT*-Cy5.5 was applied topically and allowed to incubate for 5 minutes before rinsing thoroughly with water to remove unbound peptide. Fluorescent and reflectance images were then collected with the same endoscope set to the appropriate channels. Once in vivo imaging was complete, four of the mice used in the study were euthanized and colons harvested. Polyps and flat lesions detected during fluorescence imaging were located, removed, and processed for histology (H&E).
Colonic dysplasia was detected on wide-field endoscopy in the colon of CPC;Apc mice. […] After administration of RTS*-Cy5.5, fluorescence images were collected. […] Based on the location of dysplastic lesions determined using fluorescence images collected with endoscopy, a pathologist measured the depth of dysplasia on histology, as shown by the dashed arrow in FIG. 7E. […]

pep*-Cy5: RTSPSSR labeled at the C-terminus with Cy5 via a GGGSK linker
T/B ratio (human colonic tissues; adenocarcinoma relative to normal): 4.4 | T/B ratio (human colonic tissues; adenoma relative to normal): 3.7

RTS*-Cy5.5: RTSPSSR labeled at the C-terminus with Cy5.5 via a GGGSK linker
mean fold-difference in fluorescence intensity ([1]; SSA versus normal): 2.2 | mean fold-difference in fluorescence intensity ([1]; adenoma versus normal): 2.8

RTSPSSR [RTS*]
competition for binding of RTS*-Cy5.5 to SW620 cells (SW620 cells; addition of unlabeled RTS* and SPT*): significant difference | concentration of unlabeled peptide at which significant differences in RTS*-Cy5.5 binding were observed (SW620 cells; unlabeled RTS* versus SPT* (control), 0-400 μM, then 5 μM RTS*-Cy5.5): ≥ 25 µM | trans-epithelial electrical resistance (TEER) (T84 monolayers; 5 μM peptide, up to 24 hours): high | effect on tight junction function and ZO-1 distribution (T84 monolayers; 24 hours after peptide incubation): neither peptide alters tight junction function or ZO-1 distribution; also recorded: not altered | localization of peptide in monolayer (T84 monolayers; T84 cells, by comparison to SPT*): localizes partially to cellular junctions; also recorded: partially localizes to cellular junctions | enrichment after three rounds of biopanning [2]: highest level of enrichment | fold change of T/B ratio versus SPT* (colonic dysplasia; paired t-test): 1.95 fold change | T/B ratio (mean±SD) (colonic dysplasia; topical 100 μM, 5 minutes): 1.93±0.46
